Apparent affinities of Ab-14 variants for a coronavirus HR2 peptide

Data: MIT Lincoln Laboratory AlphaSeq set, Engelhart et al. 2022, doi:10.1038/s41597-022-01779-4, as distributed in FLAb.

The target is the same throughout: PDVDLGDISGINAS, from the HR2 region of SARS-CoV-2 spike.

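The parent was found by panning a naive human phage display library on the peptide. Variants in AAYL49 differ from the parent at up to three CDR positions; double and triple changes were sampled at random. The scFvs were displayed on barcoded MATa yeast, the peptide on MATalpha yeast. Binding brings cells together so that they mate, and sequencing counts the barcode pairs among the diploids. The ratio of observed to expected reads was calibrated, replicate by replicate, on BCL2-family standards whose Kd was known from biolayer interferometry. There are three technical replicates.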

Each scFv is VH, a 15-residue (Gly4Ser)3 linker, VL, as in the parent Ab-14, and differs from it in the CDRs of the heavy chain only.
VH: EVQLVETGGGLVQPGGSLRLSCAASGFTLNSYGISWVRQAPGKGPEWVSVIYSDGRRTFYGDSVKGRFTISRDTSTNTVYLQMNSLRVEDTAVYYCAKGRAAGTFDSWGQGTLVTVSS
VL: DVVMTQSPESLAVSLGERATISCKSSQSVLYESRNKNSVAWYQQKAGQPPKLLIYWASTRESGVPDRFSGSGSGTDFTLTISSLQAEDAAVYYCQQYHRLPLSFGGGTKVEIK

The parent's heavy chain CDRs are GFTLNSYGIS, VIYSDGRRTFYGDSVK, GRAAGTFDS; each variant's own CDRs replace them letter for letter. Numbers give log10(Kd / nM), so 0 is 1 nM and 3 is 1 µM. Smaller is tighter. Replicates are averaged; those with no signal do not enter the mean. "ND" means that the variant was in the library but no mating with the target was seen in that replicate; the authors take this as a sign of poor binding, and no number exists.

| CDR-H1 | CDR-H2 | CDR-H3 | log10 Kd (nM) by replicate | mean log10 Kd (nM) | signal with controls |
|---|---|---|---|---|---|
| GFTLNSYGIS | VIYSDGRRTFYGDAVK | GRAAGIFDS | ND 2.57 ND | 2.57 | 0 of 9 |
| GFTLIIYGIR | VIYSDGRRTFYGDSVK | GRAAGTFDS | ND ND ND | ND | 0 of 9 |
| GFTLNSYGIS | VIYSDGFRTVYGDSVK | GRAAGTFLS | ND ND ND | ND | 1 of 9 (4.20) |
| GFIGNSYGIS | VIYSDGRRTFYGDSVK | GDAAGTFDS | 1.75 1.69 2.01 | 1.82 | 0 of 9 |
| GFTLNRYGIS | VIYSDGRRTFYPDSVK | GRAAGTFHS | ND ND ND | ND | 1 of 9 (3.46) |
| GFTLNSYGIS | VIYSDSRRTFYGDSVK | VRAAGTMDS | ND ND ND | ND | 1 of 9 (3.81) |
| GFTLNSYGIS | VIYGDGRRTFYGDSVK | GRAAGTEDS | ND ND ND | ND | 0 of 9 |
| GFTLNSYGIS | VIYRDPRRTFYGDSVK | GRAAGTFKS | ND ND ND | ND | 3 of 9 (3.11) |
| GFTLKGYGIS | VIYSDGRRTFYGDSVK | GRVAGTFDS | 3.32 2.70 2.87 | 2.96 | 2 of 9 (4.32) |
| GFTLNSYGIS | VIYSDGRQTFYGNRVK | GRAAGTFDS | ND 3.38 ND | 3.38 | 3 of 9 (3.43) |
| GFTLNSYGMS | VIYSDGRRTDYTDSVK | GRAAGTFDS | 4.65 ND ND | 4.65 | 1 of 9 (4.44) |
| GFTLNSYMIS | VIYSDGRRTFYGDSVK | GRAAGTMDD | ND ND 3.91 | 3.91 | 2 of 9 (3.21) |
| GFTLNCYGIS | VCYSDGRRTFYGDSVK | GNAAGTFDS | ND ND ND | ND | 0 of 9 |
| GFTLNSYGSS | VIYSDGRMKFYGDSVK | GRAAGTFDS | ND ND ND | ND | 2 of 9 (3.52) |
| GFTLNSYGIS | VFYSDGRRFFYGDSVK | GGAAGTFDS | 4.40 5.53 4.41 | 4.78 | 7 of 9 (4.37) |
| GFTLNSYGII | VIYSDGRRTFYGDSVK | GRAAIRFDS | ND ND ND | ND | 0 of 9 |
| GFTLNSYGIS | VIYSDGRRTFYGDFVK | KRAAATFDS | 3.40 ND ND | 3.40 | 0 of 9 |
| GKTLNSYGIS | VIYTDGRRGFYGDSVK | GRAAGTFDS | 3.16 2.75 3.52 | 3.14 | 1 of 9 (3.44) |
| GFPLNSYGIS | VIYIDGARTFYGDSVK | GRAAGTFDS | 2.37 ND 3.63 | 3.00 | 3 of 9 (2.88) |
| GDTLNSYGIS | VAYSDGRRTFYGDSVK | GRAAGTFPS | 2.53 ND 4.39 | 3.46 | 0 of 9 |
| GFTLNSYGIS | VIYSDRRRHFYGDSVK | GRAHGTFDS | ND ND ND | ND | 0 of 9 |
| GFTLNSYGCS | VIYSDGRRTFYGDSVK | GRDNGTFDS | 4.70 3.96 4.19 | 4.28 | 4 of 9 (4.36) |
| GFTLNSYGIS | VIHSDGRRTFYGDSKK | GRAMGTFDS | ND ND ND | ND | 2 of 9 (3.70) |
| GFTLNSYGTN | VIYSDGRRTFYGCSVK | GRAAGTFDS | ND 4.13 ND | 4.13 | 2 of 9 (3.95) |
| GFTLNSYGCE | VIYSIGRRTFYGDSVK | GRAAGTFDS | ND ND ND | ND | 1 of 9 (2.96) |
| DFTLNSYGIS | VIYHDGRRTFYPDSVK | GRAAGTFDS | 4.02 ND 4.44 | 4.23 | 0 of 9 |
| GFTLNSYGIS | YIYPDGRRTFYGDSVK | GRAAGTHDS | 3.49 ND 3.64 | 3.57 | 5 of 9 (3.35) |
| GFTLNSYGIT | VIYSDTRRTFYGDSVK | GRAKGTFDS | ND ND ND | ND | 1 of 9 (2.42) |
| GFTLNSYGIS | IIYSDGRRTFYGCSVK | GRAAGTFDS | ND ND ND | ND | 0 of 9 |
| GFTLNSYGII | VIYSDGRVTFYEDSVK | GRAAGTFDS | ND ND ND | ND | 1 of 9 (3.17) |

In this assay the parent's reference entry averaged 0.65; its copy inside this library read 4.11 (one replicate of three). Background: pairings of library AAYL49 with three empty control strains gave a value in 15% of cases (median 4.06, 5th percentile 2.83). Values in that range, when seen in few replicates, are hard to tell from nonspecific mating. The control count says in how many pairings with the empty strains this scFv gave a signal, with their mean in brackets.